In test [1] the target is Cyt1Aa activated toxin, wild type (Bacillus thuringiensis subsp. israelensis) (UniProt P0A382).
Test [2] addresses Cyt1Aa disulfide-bridged protoxin dimer, wild type (Bacillus thuringiensis subsp. israelensis).

The text below walks through data of publication PMC7052140.

“Cyt1Aa activated toxin, wild type (from UniProt P0A382 1-249) (domain or fragment)” came in with an LC50, cytotoxicity on HEK293 cells (propidium iodide, flow cytometry) in test [1] of 0.085 µM.
Consider “Cyt1Aa disulfide-bridged protoxin dimer, wild type (complex)”, for which the LC50, cytotoxicity on HEK293 cells (propidium iodide, flow cytometry) in test [2] amounted to 16.6 µM.
